What was measured:
[1] = target: T1, CGRP1 receptor (Rattus norvegicus, UniProt Q63118+Q9JJ74); assay: laser Doppler blood flowmetry assay (hαCGRP-induced skin blood flow); format: in vivo; details: intradermal injection in abdominal skin
T1 construct: intradermal injection of hCGRP within a small, defined area of abdominal skin produced a 30-40% increase in local blood flow; from tissue; host or cells: living anaesthetised rat, abdominal skin
Method: Methods. An automated laser Doppler blood flowmetry device is used (MoorLDI®; Moor Instrument, Devon, UK). The device was turned on prior to the start of experiments and allowed to warm up for 20 minutes. Blood flow data (in FLUX) were read from software records (see below).
For each rat, the experimental procedure was performed within a single day and was each rat was sacrificed on the same day immediately after the experiment was over. On an experiment day, each rat was weighed and administered 1 ml/kg (intramuscular injection in right leg) of an anesthetic cocktail consisting of Ketamine, Xylazine and PBS (5:3:2). […] The animal was then ready for the experiment.
Approximately 20 min after the injection of the anesthetic cocktail, baseline blood flow readings were collected for each animal. […]
After completion of baseline scanning, the rat was removed from the device. […] After a pre-determined interval, based on pharmacokinetic characteristics of the relevant CGRP peptide antagonist, agonist (human αCGRP; 0.1 μg, 50 μL; interdermal) was injected such that the point of entry of the needle (30 gauge) was remote from the marker dot but the intradermal injection bolus was centered under the dot. […]
In some cases, plasma IC50 values were calculated by performing least squares linear regression on log plasma concentration values (nM) vs. % change in blood flow values calculated for individual rats.

Amino acid sequences for entries named in this document (tags omitted). Residues count along the entry.
UniProt Q63118, 24-464: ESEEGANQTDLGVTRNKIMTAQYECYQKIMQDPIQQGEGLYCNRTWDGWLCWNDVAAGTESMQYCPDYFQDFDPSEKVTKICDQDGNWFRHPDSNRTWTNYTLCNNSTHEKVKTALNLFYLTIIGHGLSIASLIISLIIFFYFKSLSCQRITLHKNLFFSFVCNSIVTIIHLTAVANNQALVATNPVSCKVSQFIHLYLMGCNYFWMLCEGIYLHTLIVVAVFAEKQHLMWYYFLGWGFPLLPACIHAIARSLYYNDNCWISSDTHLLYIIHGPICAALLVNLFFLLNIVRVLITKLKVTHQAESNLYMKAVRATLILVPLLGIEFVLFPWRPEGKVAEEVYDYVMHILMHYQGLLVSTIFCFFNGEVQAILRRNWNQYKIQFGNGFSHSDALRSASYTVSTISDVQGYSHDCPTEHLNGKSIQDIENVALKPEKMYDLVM
UniProt Q9JJ74, 27-148: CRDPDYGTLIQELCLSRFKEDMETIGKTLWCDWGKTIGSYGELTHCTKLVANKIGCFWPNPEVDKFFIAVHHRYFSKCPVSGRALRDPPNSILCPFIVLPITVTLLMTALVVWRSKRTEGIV

[2] = cited from earlier work

Substance	increase in local blood flow [1]	half-life in mammalian plasma [2]
hCGRP: agonist, native human αCGRP [reference compound]	30-40%	
CGRP: native CGRP peptide		about 10 min

Source: patent US8168592B2 (Amgen Inc., priority 2005, dated 2012)
